Test results from US8614182B2, “GLP-1 analogues and their pharmaceutical salts and uses” (Jiangsu Hansoh Pharmaceuticals Co., Ltd., priority 2009, dated 2013).

By UniProt entry, the sequences of proteins in these tests, tags left out. Residues count along the entry.
UniProt P43220, 24-463, species assumed: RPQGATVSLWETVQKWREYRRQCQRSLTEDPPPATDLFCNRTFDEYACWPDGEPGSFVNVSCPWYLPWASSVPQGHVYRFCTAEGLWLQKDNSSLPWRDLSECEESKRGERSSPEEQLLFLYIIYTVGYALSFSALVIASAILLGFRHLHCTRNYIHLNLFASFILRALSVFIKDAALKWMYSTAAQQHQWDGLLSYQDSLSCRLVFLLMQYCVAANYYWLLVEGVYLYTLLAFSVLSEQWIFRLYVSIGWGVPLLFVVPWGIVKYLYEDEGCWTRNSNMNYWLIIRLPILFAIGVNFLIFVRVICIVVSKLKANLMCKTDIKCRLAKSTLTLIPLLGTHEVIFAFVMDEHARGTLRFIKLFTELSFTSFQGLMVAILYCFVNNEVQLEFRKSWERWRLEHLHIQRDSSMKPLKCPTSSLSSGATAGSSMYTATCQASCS

Tests used:
[1] = target: T1, Glucagon-like peptide-1 receptor (GLP1R) (Homo sapiens, UniProt P43220); assay: Agonist activity on GLP1R, cAMP response element luciferase reporter gene in HEK293 cells; format: cell-based; conditions: HEK293 cells stably transfected with GLP1R and pCRE-Luc, 5 hours incubation; read-out: Maximum reaction rate
T1 construct: expressed in transfected cells; host or cells: HEK293
Excerpt: GLP1R is a receptor coupled with Gs protein, of which the binding with the agonists will result in an increase of intracellular cAMP concentration. In the present experiment, GLP1R and the luciferase reporter gene plasmid regulated by cAMP response elements are co-transfected into HEK293 cells. When the compound binds to the receptor and activates the receptors, the expression of the luciferase will increase. The activation status of the compound to GLP1R can be learned by testing the activity of the luciferase.
2. The compounds or positive drugs having a certain concentration gradient were added (3 wells per concentration) and incubated at 37° C. for 5 hours. The negative control was solvent DMSO.
3. 50 μl culture medium was taken from each well, and 50 μl of the luciferase substrate were added and vortexed for 10 minutes.
4. 80 μl reaction solution was taken and transferred to a white 96 well plate, then detected on the Invision microplate reader (enzyme-labelling measuring instrument).

[2] = tested on: db/db mice with type 2 diabetes; assay: Random blood glucose of db/db mice after single subcutaneous injection; format: in vivo; conditions: for random blood glucose: n = 8; for decrease rate of random blood glucose: versus control group; for random blood glucose level (words, test conclusions): single s.c., dose of 3 μg/kg (so in the source)
Description: db/db mice with type 2 diabetes were divided into six groups based on a random blood glucose and body weight (8 per group). […] The random blood glucose of the mice is determined at differete time after administration.
Preparation method: 1 bottle of the compound (2 mg/bottle) was dissolved with double-distilled water to prepare a colorless and transparent solution of which the concentration is 2 mg/mL. […] “ACCU-CHEK® Advantage” blood glucose meter form Roche was used to determine the blood glucose.
Route and volume of administration: Single subcutaneous injection dose, dose volume was 5 mL/kg. […]
The random blood glucoses of db/db mice were measured.
Each group has 8 mice, half male and half female. The animals of each group were administered with the test compounds or solvent control respectively through single subcutaneous injection.

[3] = 3 μg/kg single s.c., 1 h after administration, X ± s
[4] = 3 μg/kg single s.c., 1 h after administration
[5] = 3 μg/kg single s.c., 2 h after administration, X ± s
[6] = 3 μg/kg single s.c., 2 h after administration
[7] = 3 μg/kg single s.c., 4 h after administration, X ± s
[8] = 3 μg/kg single s.c., 4 h after administration
[9] = 3 μg/kg single s.c., 8 h after administration, X ± s
[10] = 3 μg/kg single s.c., 8 h after administration
[11] = 3 μg/kg single s.c., after 2 h and 4 h, P<0.05
[12] = 3 μg/kg single s.c., after 8 hours
[13] = 3 μg/kg single s.c., after one hour, P<0.05
[14] = 3 μg/kg single s.c., before administration, X ± s
[15] = 10 μg/kg single s.c., 1 h after administration
[16] = 10 μg/kg single s.c., 1 h after administration, ± s
[17] = 10 μg/kg single s.c., 2 h after administration
[18] = 10 μg/kg single s.c., 2 h after administration, ± s
[19] = 10 μg/kg single s.c., 4 h after administration
[20] = 10 μg/kg single s.c., 4 h after administration, ± s
[21] = 10 μg/kg single s.c., 8 h after administration
[22] = 10 μg/kg single s.c., 8 h after administration, ± s
[23] = 10 μg/kg single s.c., 24 h after administration
[24] = 10 μg/kg single s.c., 24 h after administration, ± s
[25] = 10 μg/kg single s.c., after 4 h and 8 h
[26] = 10 μg/kg single s.c., after 24 hours
[27] = 10 μg/kg single s.c., before administration, ± s
[28] = 10 μg/kg single s.c., time not specified

SMILES	Emax [1] [%]	random blood glucose [2, 3] [mmol/L]	decrease rate of random blood glucose [2, 4] [%]	random blood glucose [2, 5] [mmol/L]	decrease rate of random blood glucose [2, 6] [%]	random blood glucose [2, 7] [mmol/L]	decrease rate of random blood glucose [2, 8] [%]	random blood glucose [2, 9] [mmol/L]	decrease rate of random blood glucose [2, 10] [%]	random blood glucose values compared with those of the control group [2, 11]	random blood glucose values compared with those of the control group [2, 12]	random blood glucose values compared with those of the control group [2, 13]	random blood glucose [2, 14] [mmol/L]	decrease rate of random blood glucose [2, 15] [%]	random blood glucose [2, 16] [mmol/L]	decrease rate of random blood glucose [2, 17] [%]	random blood glucose [2, 18] [mmol/L]	decrease rate of random blood glucose [2, 19] [%]	random blood glucose [2, 20] [mmol/L]	decrease rate of random blood glucose [2, 21] [%]	also measured
CCCCCCCCCCCCCCCC(=O)N[C@@H](CCCCNC(=O)[C@H](CO)NC(=O)[C@@H]1CCCN1C(=O)[C@@H]1CCCN1C(=O)[C@@H]1CCCN1C(=O)CN(C)C(=O)CNC(=O)[C@H](CCCCN)NC(=O)[C@H](CCCCN)NC(=O)CNC(=O)[C@H](CCCNC(=N)N)NC(=O)CNC(=O)[C@H](CCCCN)NC(=O)[C@@H](NC(=O)[C@H](CC(C)C)NC(=O)[C@H](Cc1c[nH]c2ccccc12)NC(=O)[C@@H](NC(=O)[C@@H](NC(=O)[C@H](Cc1ccccc1)NC(=O)[C@H](CCC(=O)O)NC(=O)[C@H](C)NC(=O)[C@H](C)NC(=O)[C@H](CCC(N)=O)NC(=O)[C@H](CCC(=O)O)NC(=O)[C@H](CCC(=O)O)NC(=O)[C@H](CC(C)C)NC(=O)[C@H](Cc1ccc(O)cc1)NC(=O)[C@H](CO)NC(=O)[C@H](CO)NC(=O)[C@@H](NC(=O)[C@H](CC(=O)O)NC(=O)[C@H](CO)NC(=O)[C@@H](NC(=O)[C@H](Cc1ccccc1)NC(=O)[C@@H](NC(=O)CNC(=O)[C@H](CCC(=O)O)NC(=O)[C@H](C)NC(=O)[C@@H](N)Cc1c[nH]cn1)[C@@H](C)O)[C@@H](C)O)C(C)C)[C@@H](C)CC)C(C)C)C(C)C)C(=O)O [HS-20008]	88.5	20.56 ± 1.30	13.90	20.81 ± 1.70	11.62	19.30 ± 2.02	8.90	22.41 ± 1.51	6.25	kept a lower level and had significant difference	no significant difference	decreased significantly	25.11 ± 1.58	35.49	19.38 ± 1.83	25.79	21.61 ± 1.68	27.33	21.72 ± 1.63	22.57	decrease rate of random blood glucose ([2]; 3 μg/kg single s.c., 1 h after administration, listed as 20008): 13.90%; random blood glucose [2, 22]: 23.56 ± 1.80 mmol/L; decrease rate of random blood glucose [2, 23]: 14.58%; random blood glucose [2, 24]: 25.72 ± 1.69 mmol/L; random blood glucose values compared with those of the control group [2, 25]: still kept at a lower level; random blood glucose values compared with those of the control group [2, 26]: not significantly different; random blood glucose [2, 27]: 23.49 ± 1.49 mmol/L; random blood glucose values compared with those of the control group [2, 28]: decreased immediately and significantly; random blood glucose level (words, test conclusions) [2]: decreased obviously
CCCCCCCCCCCCCCCC(=O)N[C@@H](CCCCNC(=O)[C@H](CO)NC(=O)[C@@H]1CCCN1C(=O)[C@@H]1CCCN1C(=O)[C@@H]1CCCN1C(=O)CN(C)C(=O)CNC(=O)[C@H](CCCCN)NC(=O)[C@H](CCCCN)NC(=O)CNC(=O)[C@H](CCCNC(=N)N)NC(=O)CNC(=O)[C@H](CCCCN)NC(=O)[C@@H](NC(=O)[C@H](CC(C)C)NC(=O)[C@H](Cc1c[nH]c2ccccc12)NC(=O)[C@@H](NC(=O)[C@@H](NC(=O)[C@H](Cc1ccccc1)NC(=O)[C@H](CCC(=O)O)NC(=O)[C@H](C)NC(=O)[C@H](C)NC(=O)[C@H](CCC(N)=O)NC(=O)CNC(=O)[C@H](CCC(=O)O)NC(=O)[C@H](CC(C)C)NC(=O)[C@H](Cc1ccc(O)cc1)NC(=O)[C@H](CO)NC(=O)[C@H](CO)NC(=O)[C@@H](NC(=O)[C@H](CC(=O)O)NC(=O)[C@H](CO)NC(=O)[C@@H](NC(=O)[C@H](Cc1ccccc1)NC(=O)[C@@H](NC(=O)CNC(=O)[C@H](CCC(=O)O)NC(=O)[C@H](C)NC(=O)[C@@H](N)Cc1c[nH]cn1)[C@@H](C)O)[C@@H](C)O)C(C)C)[C@@H](C)CC)C(C)C)C(C)C)C(=O)O [HS-20006]	87.4	20.36 ± 1.25	14.25	19.91 ± 1.70	13.12	19.58 ± 1.54	10.86	24.30 ± 1.50	8.14	kept a lower level and had significant difference	no significant difference	decreased significantly	25.11 ± 1.49	38.12	19.52 ± 1.72	27.66	21.43 ± 1.49	29.78	21.53 ± 1.67	23.72	decrease rate of random blood glucose ([2]; 3 μg/kg single s.c., 1 h after administration, listed as 20006): 14.25%; random blood glucose [2, 22]: 23.39 ± 1.55 mmol/L; decrease rate of random blood glucose [2, 23]: 13.66%; random blood glucose [2, 24]: 25.59 ± 1.74 mmol/L; random blood glucose values compared with those of the control group [2, 25]: still kept at a lower level; random blood glucose values compared with those of the control group [2, 26]: not significantly different; random blood glucose [2, 27]: 23.54 ± 1.39 mmol/L; random blood glucose values compared with those of the control group [2, 28]: decreased immediately and significantly; random blood glucose level (words, test conclusions) [2]: decreased obviously
